This is an account of results in ChEMBL document CHEMBL1124705, “Renin inhibitors containing isosteric replacements of the amide bond connecting the P3 and P2 sites” (J Med Chem, 1990).

Protein sequences, listed by entry. Tags and fused reporters are not part of them. Lines headed by an entry give the natural chain unless they say otherwise; changes in a name come on top.
UniProt P00797: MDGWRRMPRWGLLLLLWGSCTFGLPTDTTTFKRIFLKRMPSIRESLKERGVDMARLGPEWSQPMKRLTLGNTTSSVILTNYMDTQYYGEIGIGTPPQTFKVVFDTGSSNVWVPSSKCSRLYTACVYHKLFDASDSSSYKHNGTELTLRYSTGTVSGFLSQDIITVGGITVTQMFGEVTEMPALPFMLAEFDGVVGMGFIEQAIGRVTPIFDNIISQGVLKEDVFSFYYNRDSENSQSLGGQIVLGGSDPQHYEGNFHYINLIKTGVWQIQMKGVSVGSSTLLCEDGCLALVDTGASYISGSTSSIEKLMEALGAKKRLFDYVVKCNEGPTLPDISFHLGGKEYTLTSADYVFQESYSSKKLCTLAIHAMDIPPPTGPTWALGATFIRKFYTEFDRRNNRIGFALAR

The target in the experiment is Renin (Homo sapiens, UniProt P00797). The experiment is described as follows: Inhibitory activity against human renin. In short, it runs like this:
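It was incubated 2 h at 37 °C with compound added in DMSO. Angiotensin I generated, linear over this period, was corrected for endogenous AI and expressed as percent of DMSO control. IC50 was estimated from semilog plots of three or more concentrations.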

The term IC50 denotes the point on the concentration scale where inhibition reaches its midpoint. Compound `CC(C)C[C@H](NC(=O)C[C@@H](O)C(Cc1ccccc1)NC(=O)[C@H](Cc1c[nH]cn1)NC[C@H](Cc1ccccc1)NC(=O)OC(C)(C)C)C(=O)NCc1ccccc1` (stereo partly specified) displayed a concentration for half-maximal inhibition (IC50) of 3.8 µM.
